One-dose inflammasome screen (PubChem AID 2061109, Seoul National University)
system: mouse macrophages from bone marrow, LPS + nigericin (NLRP3)
compound dose: 5 µM
value: % inhibition of cell death (propidium iodide), 0 = stimulated, 100 = untreated, floor at 0
*: called active, above 70% Part of the library is listed.

COc1cc(C(=O)c2ccc(-c3csc(NC(=O)[C@@H](N)C(C)C)n3)cc2-n2cncn2)cc(OC)c1OC.Cl → inhibition: 8.2%
Cn1nc(C(C)(C)C)cc1C(=O)N[C@@H](Cc1cccc(Cl)c1)C(=O)NCC#N → inhibition: 78.4*%
CNCCCOc1cc(F)c(-c2c(Cl)nc3ncnn3c2N[C@@H](C)C(F)(F)F)c(F)c1 → inhibition: 7.7%
OCCNCc1cc(Br)ccc1OCc1ccc(F)c(C(F)(F)F)c1 → inhibition: 61.8%
CC(CN(C)C)CN1c2ccccc2CCc2ccccc21.O=C(O)/C=C\C(=O)O → inhibition: 1.9%
COc1cccc(CNc2ccc(S(=O)(=O)Nc3nccs3)cc2)c1O → inhibition: 0.0%
O=C(O)CCCCCCCCCCCNC(=O)NC12CC3CC(CC(C3)C1)C2 → inhibition: 64.4%
COc1cc2nnc(C(N)=O)c(Nc3ccc(C)cc3F)c2cc1N1CCN(CCO)CC1 → inhibition: 11.9%
CC(C)CC(NC(=O)C(Cc1ccccc1)NC(=O)c1cnccn1)B1OC2CC3CC(C3(C)C)C2(C)O1 → inhibition: 27.8%
OC(CNCCc1c[nH]c2ccccc12)Cn1c2ccccc2c2ccccc21 → inhibition: 0.0%
C[C@@H](Oc1cc(-n2cnc3ccc(CN4CCN(C)CC4)cc32)sc1C(N)=O)c1ccccc1C(F)(F)F → inhibition: 18.6%
Cn1c(=O)c2c(ncn2CC(O)CN2CCN(CCCSc3ccccc3)CC2)n(C)c1=O → inhibition: 48.9%
Clc1ccc(C2(c3ccc(-c4cn[nH]c4)cc3)CCNCC2)cc1 → inhibition: 0.0%
C[C@]12N[C@H](Cc3ccccc31)c1ccccc12 → inhibition: 83.1*%
Cl.Cl.O=C(O)COCCN1CCN([C@H](c2ccccc2)c2ccc(Cl)cc2)CC1 → inhibition: 71.6*%
C[C@@H]1COCCN1c1cc(-c2ccnn2C)c2ccnc(-c3ccn[nH]3)c2n1 → inhibition: 0.0%
CC(C)n1cnnc1-c1cccc(NC(=O)c2cc3ccc(F)cc3[nH]2)n1 → inhibition: 23.3%
Cc1cc(-c2ccccc2)nnc1C(=O)N1CCN(c2ncccn2)CC1 → inhibition: 79.8*%
CCCCCC(O)/C=C/C=O → inhibition: 44.3%
Cl.Cl.Nc1cc(COc2c(Cl)cc(C[C@H](N)C(=O)O)cc2Cl)c2oc(-c3ccccc3)nc2c1 → inhibition: 57.0%
O=C(O)CSc1ncnc2c(C3CC3)c(Cl)sc12 → inhibition: 0.0%
Nc1nc(Cl)nc2c1ncn2[C@H]1C[C@H](O)[C@@H](CO)O1 → inhibition: 3.4%
C=CC(=O)N1CCC[C@@H](n2nc(-c3ccc(Oc4ccccc4)cc3)c(C(N)=O)c2N)C1 → inhibition: 0.0%
C/C(O)=C(\C#N)C(=O)Nc1ccc(-c2ccccc2Cl)cc1 → inhibition: 0.0%
c1ccc(Cn2c(N3CCNCC3)nc3ccccc32)cc1 → inhibition: 62.9%
O=c1[nH]c(CSC2CCC(O)CC2)nc2cc(OCC3CC3)cc(F)c12 → inhibition: 46.5%
COC(=O)Nc1nc2ccc(C(=O)c3cccs3)cc2[nH]1 → inhibition: 14.4%
C[C@@H]1O[C@@H](OC[C@H]2O[C@@H](Oc3cc(O)c4c(c3)O[C@H](c3ccc(O)cc3)CC4=O)[C@H](O)[C@@H](O)[C@@H]2O)[C@H](O)[C@H](O)[C@H]1O → inhibition: 54.0%
COc1cc(Oc2ccnc3cc(OC)c(OC)cc23)ccc1NC(=O)NC(C)c1nccs1 → inhibition: 41.4%
C[C@]12CC[C@H]3[C@@H](CC[C@]4(O)C[C@@H](O)CC[C@]34C=O)[C@@]1(O)CC[C@@H]2C1=CC(=O)OC1 → inhibition: 0.0%
Cc1ccc(NC(=O)c2ccc(CN3CCNCC3)cc2)cc1Nc1nccc(-c2cccnc2)n1 → inhibition: 0.0%
NC(=O)c1ncc[nH]c1=O → inhibition: 65.8%
O=C(Nc1ccc(Oc2cc(C(F)(F)F)cc(C(F)(F)F)c2)cc1)c1c(F)cccc1I → inhibition: 46.8%
O=P(O)(O)COC[C@H]1O[C@@H](n2ncc3c(NC4CCCC4)nc(Cl)nc32)[C@H](O)[C@@H]1O → inhibition: 62.0%
CS(=O)(=O)N1CCc2c(-c3cnc(N)nc3)nc(N3CCOCC3)nc21 → inhibition: 0.0%
CCOC(=O)/C=C/C(=O)N(CC(N)=O)NC(=O)[C@H](C)NC(=O)[C@H](C)NC(=O)OCc1ccccc1 → inhibition: 0.0%
O=CN1CCN(c2ccc(C=C3C(=O)Nc4ccccc43)cc2)CC1 → inhibition: 17.0%
CN[C@H](CC(N)=O)C(=O)NC(C(=O)N[C@@H]1C(=O)N2[C@@H]1SC(C)(C)[C@@H]2C(=O)O)c1ccc(O)cc1 → inhibition: 0.0%
C/C=C/C=C/C(=O)O → inhibition: 0.0%
Nc1nc(NCc2ccccc2)nc(-c2ccccc2CO)n1 → inhibition: 54.1%
CC(=O)N1CCN(c2ccc([N+](=O)[O-])c(-c3ccc(F)c(C=C4SC(=O)NC4=O)c3)n2)CC1 → inhibition: 9.6%
COc1cc2ncnc(N(C)c3cccc(Br)c3)c2cc1OC → inhibition: 42.9%
COc1cc2c(cc1OC)CN(CCc1ccc(-n3nnc(-c4cc(OC)c(OC)cc4NC(=O)c4cc(=O)c5ccccc5o4)n3)cc1)CC2.CS(=O)(=O)O → inhibition: 0.0%
CNc1nc(Nc2cnc(C#N)c(O[C@@H]3CCCNC3)c2)ncc1-c1cnn(C)c1 → inhibition: 0.0%
COc1cccc2oc(-c3ccccc3)cc(=O)c12 → inhibition: 0.0%
O=C(O)Cc1ccc(Cc2cc(-c3cccc(Cl)c3)nc(C(F)(F)F)c2)cc1 → inhibition: 46.2%
CNC[C@@H](NC(=O)c1ccc(-c2nc([C@H]3CC[C@H](O)[C@@H](F)C3)cnc2N)cc1F)c1cc(F)cc(Br)c1 → inhibition: 40.6%
CCCCCCCC(=O)N[C@H](CN1CCCC1)[C@H](O)c1ccc2c(c1)OCCO2 → inhibition: 2.5%
OCC(CO)N[C@H]1C[C@](O)(CO)[C@@H](O)[C@H](O)[C@H]1O → inhibition: 0.0%
NC(=O)C(=O)[O-].[Na+] → inhibition: 20.1%
Cl.O=c1cc(N2CCOCC2)oc2c(-c3ccccc3)cccc12 → inhibition: 36.3%
COc1ccc(C(NC(=O)c2cnc(-c3cccnn3)[nH]c2=O)c2ccc(OC)cc2)cc1 → inhibition: 63.5%
CC1=C(O)C(=O)C=C2C1=CC=C1[C@@]2(C)CC[C@@]2(C)[C@@H]3C[C@](C)(C(=O)O)CC[C@]3(C)CC[C@]12C → inhibition: 0.0%
O=C(Cc1nnc(-c2cnc(NC3Cc4ccccc4C3)nc2)o1)N1CCc2n[nH]nc2C1 → inhibition: 30.7%
CN1C(C(=O)Nc2nccs2)=C(O)c2ccccc2S1(=O)=O → inhibition: 56.9%
O=C(N[C@@H](CSSC[C@H](NC(=O)OCc1ccccc1)C(=O)O)C(=O)O)OCc1ccccc1 → inhibition: 0.0%
Fc1ccc2c(/C=C/c3nn[nH]n3)c[nH]c2c1 → inhibition: 64.2%
CC(C(=O)O)c1ccc(C(=O)c2cccs2)cc1 → inhibition: 78.3*%
O=C(Nc1ncc(-c2cc(C(F)F)nn2-c2c(Cl)cccc2Cl)s1)C1CC1 → inhibition: 73.2*%
C[C@@H]1CCC[C@H](C)N1NC(=O)c1ccc(Cl)c(S(N)(=O)=O)c1 → inhibition: 79.8*%
CNCc1ccccc1Sc1cccc2ccccc12.Cl → inhibition: 33.7%
CC(=O)Nc1ccc(C)c(C(=O)N[C@H](C)c2cccc3ccccc23)c1 → inhibition: 66.1%
CC(C)(C)OC(=O)N1CCN(C(=O)n2ncc(-c3ccc(OC(F)(F)F)cc3)n2)C(Cc2ccccc2)C1 → inhibition: 0.0%
C/C=C(/C)C(=O)O[C@H]1C(C)=C2[C@H]([C@@H]1OC(=O)CCCCCCC)[C@@](C)(OC(C)=O)C[C@H](OC(=O)CCC)[C@@]1(O)[C@H]2OC(=O)[C@@]1(C)O → inhibition: 0.0%
Cn1c(-c2nc3cc(C(=O)N4CCCC(N)C4)ccc3n2C)cc2ccccc21.O=C(O)C(F)(F)F → inhibition: 32.9%
COc1cccc(N2CCN(C3=Nc4c(F)cccc4[C@H](CC(=O)O)N3c3cc(C(F)(F)F)ccc3OC)CC2)c1 → inhibition: 68.9%
CNc1cc2[nH]c(=O)n(-c3ccc(NC(=O)NS(=O)(=O)c4ccc(Cl)s4)cc3)c(=O)c2cc1F → inhibition: 39.2%
CC(=O)NC[C@H]1CN(c2ccc(N3CCN(C(=O)CO)CC3)c(F)c2)C(=O)O1 → inhibition: 47.3%
CC1(C)CC[C@]2(C(=O)n3cnc(-c4cccnc4)c3)CC[C@]3(C)[C@H](C(=O)C=C4[C@@]5(C)C=C(C#N)C(=O)C(C)(C)[C@@H]5CC[C@]43C)[C@@H]2C1 → inhibition: 94.7*%
N#Cc1cccnc1N1CCN(C(=O)c2cccc(Cc3n[nH]c(=O)c4ccccc34)c2)CC1 → inhibition: 0.0%
CC(C1CC1)n1cnc2c(NCc3cccc(C(F)(F)F)c3)nc(NCCN(C)C)nc21 → inhibition: 16.6%
CCCc1c2oc(C(=O)O)cc(=O)c2cc2c(=O)cc(C(=O)O)n(CC)c12 → inhibition: 0.0%

For reference, 6 entries again:

smiles	inhibition (%)
CC(=O)N1CCN(c2ccc([N+](=O)[O-])c(-c3ccc(F)c(C=C4SC(=O)NC4=O)c3)n2)CC1	9.6
C/C=C(/C)C(=O)O[C@H]1C(C)=C2[C@H]([C@@H]1OC(=O)CCCCCCC)[C@@](C)(OC(C)=O)C[C@H](OC(=O)CCC)[C@@]1(O)[C@H]2OC(=O)[C@@]1(C)O	0.0
COc1cc2ncnc(N(C)c3cccc(Br)c3)c2cc1OC	42.9
OCC(CO)N[C@H]1C[C@](O)(CO)[C@@H](O)[C@H](O)[C@H]1O	0.0
O=C(Nc1ncc(-c2cc(C(F)F)nn2-c2c(Cl)cccc2Cl)s1)C1CC1	73.2*
OCCNCc1cc(Br)ccc1OCc1ccc(F)c(C(F)(F)F)c1	61.8